## Ab-14 light chain CDR variants: yeast mating affinities

Antigen: PDVDLGDISGINAS, a 14-residue peptide of the SARS-CoV-2 spike HR2 region.

Each scFv is VH, the linker GGGGSGGGGSGGGGS, VL, as in the parent Ab-14, and differs from it in the CDRs of the light chain only.
VH: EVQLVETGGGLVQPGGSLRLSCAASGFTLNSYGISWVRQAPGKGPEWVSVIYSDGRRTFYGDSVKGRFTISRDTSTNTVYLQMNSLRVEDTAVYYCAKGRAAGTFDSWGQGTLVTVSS
VL: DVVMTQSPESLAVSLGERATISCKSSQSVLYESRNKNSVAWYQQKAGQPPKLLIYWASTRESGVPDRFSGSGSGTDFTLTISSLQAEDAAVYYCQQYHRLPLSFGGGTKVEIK

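The parent was found by panning a naive human phage display library on the peptide. These sequences belong to a second round, designed from the earlier measurements on random variants of the parent. Several design methods are mixed in this list. Affinity was read by AlphaSeq, a pooled yeast mating assay with surface-displayed partners. The frequency of each diploid, read from paired DNA barcodes, reflects how well the two displayed proteins bind. Scores were corrected for input abundance and mapped to Kd with protein pairs of known affinity run in the same pool. The assay was run in six technical replicates.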

Variants are written as CDR1, CDR2 and CDR3 of the light chain (limits as in the source). Parent: KSSQSVLYESRNKNSVA, WASTRES, QQYHRLPLS.
Variants here have at most six changes.
Affinities are written as log10 Kd with Kd in nM; a lower number is a better binder.
Averages over replicates are reported, and they cover detected replicates only.
"ND" means that the variant was in the library but no mating with the target was seen in that replicate; the authors take this as a sign of poor binding, and no number exists.

With KSAESVVYESRNLNSVA / WASTRES / QQYHRLPLS the result was 2.18, ND, 2.75, ND, ND, ND (mean 2.46; controls 1 of 18). For KSSQSVLYESRNKNSVA / WASTRFS / QQYHRLPLS, the assay gave 2.30, 0.17, 0.84, 1.02, ND, 1.68 (mean 1.20; controls 0 of 18). The variant KSSQSVLYESRNKNSVA / GALTRES / QQYHRLPLS gave 1.27, ND, 0.74, 2.16, 2.62, 1.49 (mean 1.66; controls 0 of 18). The variant KYSQSVLYESVNKNSVA / DASTRES / QQYHRLPLS showed 1.35, 1.17, 0.80, 1.27, 1.67, 1.05 (mean 1.22; controls 1 of 18). The variant KVDLSVLEESRNKNSLA / WASTRES / QQHHRLPLS showed 1.33, 0.90, 1.18, 0.94, 0.63, 1.15 (mean 1.02; controls 0 of 18). With KLPQSQLYESRNKNSVA / QASTRLS / QQYHRLPLS the result was 0.15, 0.00, 0.04, 0.12, -0.02, 0.08 (mean 0.06; controls 2 of 18). For KSSQSELYESRNKNSVA / DASQRES / QQYHRLPLS, the assay gave 0.79, 0.52, 0.42, 0.22, 0.91, 1.26 (mean 0.69; controls 0 of 18).

With KFSQWSLYESRTKNSVA / NASTRES / QQYHRLPLS the result was 0.58, 0.70, -0.08, -0.08, 0.43, 0.03 (mean 0.26; controls 1 of 18). For KHSQSVLGEQRNKNSVA / DASTRES / QQYHRLPLS, the assay gave -0.10, -0.15, -0.20, -0.46, -0.21, -0.25 (mean -0.23; controls 0 of 18). The variant KLRQSTLYESRNPNSVA / QASLRES / QQYHRLPLS showed -0.07, -0.07, 0.77, 0.20, 0.00, 0.06 (mean 0.15; controls 1 of 18). The variant SSQQSVLYERNNKNSVA / WASTRES / QQYHRLPLS showed 2.86, 2.28, ND, 2.60, 3.72, 3.78 (mean 3.05; controls 0 of 18). With KSSQSVLYESENKNSMA / WASTRVS / QQYHRLPLS the result was 1.37, 0.94, 1.45, 0.89, 0.73, 1.32 (mean 1.12; controls 3 of 18). The variant KSSQSVLYESRNHNSVA / TASTRES / QQYHRLPLS gave 0.97, 1.07, 1.18, 0.75, 0.65, 0.70 (mean 0.89; controls 2 of 18). For KLSQSELYEERNDNSVA / SASQRES / QQYHRLPLS, the assay gave 0.82, 0.70, 0.29, 0.51, 0.81, 0.79 (mean 0.65; controls 0 of 18).

With KSSQSELYESRHKNSVA / NASYRED / QQYHRLPLS the result was 0.25, 0.58, 0.24, 0.11, 0.04, 0.42 (mean 0.28; controls 0 of 18). The variant KSEWSVLYESNNKNSVA / HASTRED / QQYHRLPLS showed 0.67, 1.17, 0.95, 1.04, 0.72, 1.40 (mean 0.99; controls 0 of 18). The variant KVSQSELYESRNKNSVA / EASTRLS / QQYHRLPLS showed 0.08, -0.21, -0.29, -0.13, -0.28, -0.22 (mean -0.17; controls 0 of 18). The variant KQSQSVLGESRNKNSVA / DASTRES / QQYHRLPLD gave 0.26, 0.58, 0.49, 0.10, 0.34, 0.41 (mean 0.36; controls 0 of 18). For KLVQSHLYESRNKNSVA / EASTREQ / QQYHRLPLS, the assay gave 1.03, 0.69, 1.12, 0.90, 1.20, 1.09 (mean 1.00; controls 0 of 18). The variant KSGQGVLYEHRNWNSVA / GASTRES / QQYHRLPLS gave 0.22, 0.04, -0.20, -0.20, -0.24, -0.03 (mean -0.07; controls 1 of 18). For KLSQSDLYESRNKNSVA / EASERES / QQYHRLPLS, the assay gave 0.04, -0.15, -0.23, -0.06, -0.21, 0.20 (mean -0.07; controls 0 of 18).

The variant KLSQSVEVLSRNKNSVA / EASTREM / QQYHRLPLS showed -0.57, -0.46, -0.45, -0.61, -0.47, -0.05 (mean -0.43; controls 1 of 18). The variant KLSQSNLYESRNKNSVA / NASQRES / QDYHRLPLS showed 0.25, 0.21, 0.00, 0.12, 0.27, -0.07 (mean 0.13; controls 0 of 18). The variant KSSQSVLYESRNKNSVA / DASTRES / QQYHRLPLS showed 0.74, 0.21, 0.02, 0.30, 0.31, 0.39; 0.27, -0.02, 0.06, -0.26, -0.13, 0.03 (mean 0.16; controls 2 of 36). The variant KMSQSVLMESRNKNSVA / QASTRES / QQYHRLPLS gave 0.09, -0.12, -0.02, -0.33, -0.08, 0.10 (mean -0.06; controls 2 of 18). The variant KPSQSVLYESRAKNSVA / GASTPES / QQYHRLPLS gave 1.03, 0.64, 0.72, 1.60, 1.25, 1.59 (mean 1.14; controls 0 of 18). For KSSQSTLSESRNKNSVA / WASTRES / QQYHRLYLS, the assay gave ND, ND, ND, ND, ND, ND (controls 0 of 18). The variant KSSQSVLYESRNVNSVA / GASTRES / QQYHRLPLS gave 0.62, 0.34, 0.41, 0.11, 0.42, 0.67 (mean 0.43; controls 2 of 18).

The variant KSSSSVLDESRNKNSVA / WASTRES / QQYHYLPLS gave ND, ND, ND, ND, ND, ND (controls 0 of 18). The variant KLSQSVLYESRNKNSVA / SASTRES / QQYHRLPLQ showed -0.43, -0.57, -0.57, -0.72, -0.43, -0.23 (mean -0.49; controls 0 of 18). For KSSQSVLYESRFKNSVA / WGSTRES / QQYHRLPLS, the assay gave 2.37, 2.02, 3.27, 2.03, 2.02, 2.40 (mean 2.35; controls 2 of 18). The variant KLQQSVLYESRNKNSVA / DASTRSS / QQYHRLPLS showed -0.41, -0.49, -0.55, -0.64, -0.67, -0.41 (mean -0.53; controls 0 of 18). With KSSQSGLYESSNKNSVA / WASTRES / QQYHRLPLS the result was 1.30, 1.72, 1.56, 1.13, 1.48, 1.10 (mean 1.38; controls 0 of 18). The variant KFMQSWLYESRNKNSVA / NASQRES / QQYHRLPLS showed 0.17, 0.20, -0.46, -0.26, 0.04, 0.26 (mean -0.01; controls 2 of 18). With KSSLSVDHESRNKNSVA / DASTRES / QQYHRLPLS the result was 0.16, -0.30, -0.20, -0.26, -0.29, 0.03 (mean -0.14; controls 0 of 18).

For SQMQSVLYESRNKNSVA / WALTHES / QQYKRLPLS, the assay gave ND, ND, ND, ND, ND, ND (controls 0 of 18). The variant HSSPSVLYESMNKNSVA / NASTRES / QQYHRLPLS showed 0.58, 0.19, -0.04, 0.12, 0.00, 0.29 (mean 0.19; controls 0 of 18). For MSSQSVLYESRNKNSVA / WASQRES / QQYHRLPLS, the assay gave ND, ND, ND, ND, 1.67, ND (controls 0 of 18). The variant KSSQSVLYESVNKNSVA / WASTRES / QQYIREPLS gave ND, ND, ND, 1.94, ND, ND (controls 1 of 18). With KISQSVLQESRNMNSVA / WASTRES / QQYHRLPLS the result was 0.87, 0.89, 0.71, 0.72, 0.67, 0.94 (mean 0.80; controls 4 of 18). The variant KLSQSVLYESRNKNSVA / NAHTRMS / QQYHRLPLS showed 0.52, 0.08, 0.06, 0.47, 0.31, 0.60 (mean 0.34; controls 1 of 18). The variant KSSQSILYESMNKNSVA / WASTRES / QQYHRQPLP showed ND, ND, ND, ND, ND, ND (controls 0 of 18).

The variant KFSQSELYESRNQNSVA / GASTRLE / QQYHRLPLS gave -0.13, -0.09, -0.10, -0.29, -0.24, -0.28 (mean -0.19; controls 0 of 18). With KQSQSVLYESRNKNTVA / DASTRES / QMYHWLPLS the result was 1.77, 2.17, 2.89, ND, 2.88, 1.56 (mean 2.25; controls 0 of 18). The variant KVSQSWLMESRNKNSVA / EASTRES / QQYHRLPLS showed 0.01, -0.19, -0.06, -0.25, 0.03, 0.00 (mean -0.08; controls 1 of 18). With KLSQSVLYESRMKNSVA / EASTREQ / QQYHRLPLS the result was -0.37, -0.44, -0.65, -0.58, -0.56, -0.32 (mean -0.49; controls 0 of 18). With KFEQSGLYESRNKNSVA / NASTRES / QQYHRLPLS the result was -0.14, -0.54, -0.46, -0.44, -0.56, -0.39 (mean -0.42; controls 0 of 18). With KQSQSVLYESRNKNSVA / DASTRES / QMYHRLPLS the result was 0.38, -0.13, 0.09, -0.04, 0.10, 0.30 (mean 0.12; controls 2 of 18).

Empty control strains, which show no peptide, gave a signal in 4% of pairings with all light chain designs; the median was 2.64 and 95% of these signals were weaker than 1.59. No background was subtracted. The control count says in how many pairings with the empty strains this scFv gave a signal.
The parent sequence was in this pool as ten entries: three were never detected, three once, and four in most replicates, with averages from 0.34 to 2.37.
Where one sequence has several entries in the source, the replicates are listed entry by entry, parted by semicolons.
The authors' rule: three or more of the six replicates give a measured affinity, fewer mean a poor binder.
Values of this round are not directly comparable with the first-round values of the same sequences.

Reference: Li et al. 2023, doi:10.1038/s41467-023-39022-2. File: FLAb, binding data.